The assay deals with T1, GLP-1 receptor, P32301.
T1 chain: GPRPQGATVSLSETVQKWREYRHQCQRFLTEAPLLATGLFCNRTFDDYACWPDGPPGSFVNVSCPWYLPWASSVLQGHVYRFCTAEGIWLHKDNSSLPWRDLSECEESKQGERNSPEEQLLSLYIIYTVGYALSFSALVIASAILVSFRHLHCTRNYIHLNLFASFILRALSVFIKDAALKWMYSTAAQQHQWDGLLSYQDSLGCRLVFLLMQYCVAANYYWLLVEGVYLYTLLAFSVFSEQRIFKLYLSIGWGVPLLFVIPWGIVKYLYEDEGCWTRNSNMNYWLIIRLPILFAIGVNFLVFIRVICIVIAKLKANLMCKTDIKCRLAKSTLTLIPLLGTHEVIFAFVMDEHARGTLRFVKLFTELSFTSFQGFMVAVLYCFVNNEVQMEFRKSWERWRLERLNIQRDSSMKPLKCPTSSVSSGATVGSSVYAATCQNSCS
The assay is described as follows: cell-based or functional assay.

In the case of APGTFTSDLSKQMEEEAVRLFIEWLKNK (modifications not checked) [Compound 24D], the Cyclase GLP-1 Receptor EC50 is 0.77 nM.

The values above are taken from patent publication US20120046222A1.
